Earlier results as cited in PMC11655904, “[^89Zr]Zr-DFO-TOC: a novel radiopharmaceutical for PET imaging of somatostatin receptor positive neuroendocrine tumors” (EJNMMI Radiopharmacy and Chemistry, 2024).

Details: stated in the discussion, no reference given; cited from earlier work
Source text: Significant progress has been made in recent years towards understanding the underlying biology and molecular pathways involved with NETs, particularly the role of somatostatin receptors (SSTRs) and their downstream pathways. SSTRs (SSTR1, 2 A/2B, 3, 4, and 5) belong to a family of G protein-coupled receptors with seven transmembrane-spanning proteins that bind the cyclic peptide somatostatin (SST) (Theodoropoulou and Stalla [2013]). SST regulates cell growth and inhibits hormone secretion in the endocrine and exocrine systems (Brereton et al. [2015]; Ampofo et al. [2020]).

octreotide
biological half-life: 90 min
